Data reported in patent US11999748B2, “Exatecan derivatives, linker-payloads, and conjugates and thereof” (priority 2021, dated 2024).

Legend:
[1] = system: Capan-1 human pancreatic cancer cells (HER2 low); test: Capan-1 human pancreatic cancer xenograft model (1); type: in vivo; conditions: Capan-1 CDX, BALB/c nude mice, 5 mg/kg intravenously, FIG. 7
Experimental: 5×10^6 Capan-1 human pancreatic cancer cells (HER2 low) were inoculated subcutaneously in the right flank in BALB/c nude mice to generate xenograft model. After 8 days, when tumor volume reached 178 mm^3 on average, the tumor bearing mice were administrated intravenously of LC1184(8) and other five different conjugates at 5 mg/kg. The tumor volume was measured twice weekly with calipers.

[2] = system: MDA-MB-468 cells in co-culture with SK-BR-3; test: Bystander killing effect in co-culture of SK-BR-3 and MDA-MB-468; type: cell-based; conditions: co-culture SK-BR-3:MDA-MB-468-Lucia-GFP 4:1, 120 h; GFP fluorescence and luciferase luminescence
Experimental: 3) The cell mixture was prepared, wherein SKBR3: MDA-MB-468-Lucia-GFP=4:1, 5 ml.
Cell plating: 1*10^4 cells/well, 100 μl/well
Test samples: Three final concentrations are prepared from dilution with the cell medium: 50, 10 and 1 nM.
5) Incubate in a 5% CO2 incubator at 37° C. for 120 h.
(1) washed by PBS to remove dead cells, and detected by Cytation3 plate reader;
(2) Biyuntian luciferase reporter gene assay kit: lysed in 37° C. incubator for 10 min using 100 μl lysis buffer. Centrifuged at 2000 rpm for 5 minutes. 100 μl supernatant was taken. 100 μl substrate was added. The chemiluminescence was detected by microplate reader (gain: 200).
Two methods (GFP fluorescence counting and luciferase substrate luminescence method) were used for determination of bystander killing effects (FIG. 4a, 4b and FIG. 5).

[3] = system: JIMT-1 human breast cancer cells (HER2 medium); test: JIMT-1 human breast cancer xenograft model; type: in vivo; conditions: JIMT-1 CDX, SCID Beige mice, 5 mg/kg intravenously, FIG. 6
Experimental: 5×10^6 JIMT-1 human breast cancer cells (HER2 medium) were inoculated subcutaneously in the right flank in SCID Beige mice. After 7 days, when tumor volume reached 142 mm^3 on average, the tumor bearing mice were assigned and administrated intravenously of LC1184(8) and other five different conjugates at 5 mg/kg. The tumor volume was measured twice weekly with calipers. […] The conjugate of the present invention achieves great efficacy in lower DAR.

[4] = patients; cited from earlier work

Substance | efficacy on tumor volume, comparison between conjugates [1] | bystander killing effect (in words) [2] | efficacy on tumor volume, comparison between conjugates [3] | interstitial lung disease caused [4]
LC302-2-4(4) | comparable efficacy to LC1184(8) | outstanding bystander killing effects | better efficacy than LC1184(8) | 
Enhertu |  |  |  | more than 10%
